# Lamin A splicing: changes lamin A minigene splicing in HeLa cells | HeLa LMNA splicing GFP/RFP minigene ratio, 48 h | Potency, µM (highest dose often 46.1 µM), actives largely listed as inhibitors | 200,000 compounds, 0.01% hits; active means well fitted inhibition curve with a large enough effect in the signal ratio, with a control signal flat, not every such curve was filed as active; inconclusive means small, poorly fitted or top-dose-only effect, or effect the other way, or a change in a side signal; the % refers to the signal ratio
#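 S3 HeLa cells stably expressing lamin A-EGFP splicing minigene plus DsRed2, 600 cells/well, 48 h compound exposure at 37C. Laser-scanning cytometry; analysed as GFP (500-530 nm)/RFP (575-640 nm) total intensity ratio; 0.5% DMSO vehicle.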
# ALDH1A1 block: blocks purified human ALDH1A1 activity. Purified ALDH1A1, NADH fluorescence, propionaldehyde substrate. Potency, µM (titrated, usually from 75.3 µM), actives largely listed as inhibitors. 220,000 compounds, 7.3% hits; active means well fitted inhibition curve with a large enough effect, not every such curve was filed as active; inconclusive means small, poorly fitted or top-dose-only effect, or another doubt; inactive means no such curve, though single readings can be large or run the other way
# miR-21 reporter: miR-21 reporter, rising signal | AID 2288 | HeLa miR-21 FLuc reporter, luciferase, 48 h | 340,000 tested, under 10 active | Potency, µM (doses to about 38.3 µM); active = well fitted rising curve with a large enough effect; inconclusive = small, poorly fitted or top-dose-only effect; inactive = no such curve, though single readings can be large or run the other way;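 note: miR-21 action dims this reporter so a rising signal means less miR-21 action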
#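 Luminescence from a firefly luciferase reporter carrying a miR-21 binding site downstream, stably expressed under a CMV promoter in HeLa cells that make miR-21 endogenously, reports miRNA modulation after 48 h compound exposure up to approximately 40uM final.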
# Sfp PPTase inh: Sfp phosphopantetheinyl transferase inhibition; 310,000 compounds, 3.5% hits; Potency, µM, most hits filed as inhibitors; AID 1490; Biochemical Sfp PPTase activity, qHTS;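 further: the enzyme is Sfp with the accession as filed and its product quenches rhodamine fluorescence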
#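 Reaction rates are the 30-min fluorescence difference (ex 525, em 598 nm) in wells containing 15 nM Sfp, 5 uM rhodamine-CoA and 12.5 uM BHQ-2-YbbR at pH 7.6 with 10 mM MgCl2.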
# G9a block: inhibitors of human histone lysine methyltransferase G9a. G9a H3K9 monomethylation, AlphaScreen, 2 h. Potency, µM (top dose mostly 102 µM), usual class: inhibitors. 350,000 compounds, 8.8% hits. AID 504332; further: nearly all actives have a fitted effect of over 75% in size
#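 G9a (20 nM) was preincubated 15 min with compound, then reacted 2 h at room temperature with 500 nM biotin-H3K9 peptide and 20 µM SAM. Monomethyl-H3K9 detected by AlphaScreen using anti-H3K9me1 antibody.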
# KDM4E inh: inhibitors of human JMJD2E histone demethylase; B2RXH2; JMJD2E catalytic domain, FDH-coupled NADH fluorescence (FDH is formaldehyde dehydrogenase); Potency, µM (series often up to 57.1 µM), actives largely listed as inhibitors; 230,000 compounds, 1.6% hits; AID 2147; active means well fitted inhibition curve with a large enough effect, not every such curve was filed as active; inconclusive means small, poorly fitted or top-dose-only effect, or another doubt; inactive means no such curve, though single readings can be large or run the other way; further: nearly all actives have a fitted effect of over 50% in size
# Numbers stand for hits; n = inactive; u = inconclusive; x = no result given; [ ] = remark or other dose. Most compounds without a hit are left out; they make up all but 13% or so of the library. Unless noted, the call rests on the fitted dose curve; in most records, active means well fitted curve in the direction sought with a large enough effect; inconclusive means small, poorly fitted or top-dose-only effect, or another doubt; inactive means no such curve, though single readings can be large; an effect the other way counts as inactive or inconclusive.
SMILES,Lamin A splicing,ALDH1A1 block,miR-21 reporter,Sfp PPTase inh,G9a block,KDM4E inh
CCN(CC)S(=O)(=O)c1cccc(NC(=O)CSc2nnc(N)s2)c1,x,u,n,n,18µM,n
Cc1cc(-c2ccc(C)c(S(=O)(=O)NC(c3cccs3)C(C)C)c2)on1 (stereo not given),x,x,n,x,n,x
CCOC(=O)c1c(NC(=O)CSc2nnc(N)s2)sc(C)c1-c1ccc(C)cc1,u,n,n,n,40µM,n
CCn1c(=O)c([N+](=O)[O-])c(N2CCSCC2)c2ccccc21,x,x,n,u,x,n
Cn1c(=O)c([N+](=O)[O-])c(NCc2ccc3c(c2)OCO3)c2ccccc21,x,x,n,50µM,x,n
CCn1c(=O)c([N+](=O)[O-])c(N2CCN(Cc3ccc4c(c3)OCO4)CC2)c2ccccc21,x,x,n,n,32µM,n
O=[N+]([O-])c1ccc2c(c1)N([O-])C1(CCCCC1)[N+]2=O,x,x,n,7.1µM,x,11µM
CC1=C(c2ccccc2)[N+](=O)C2(CCCC2)N1[O-],n,n,n,n,n,n
CCOC(=O)/C(C#N)=C1/CCCCCN1C,n,n,n,n,n,n
CCOC(=O)/C(C#N)=C1\CCCN1CC(N)=S,n,20µM,n,35µM,18µM,n
COc1cccc(CNC(=O)Cn2c(=O)oc3cc(S(=O)(=O)N4CCCC4)ccc32)c1,x,x,n,x,n,x
C[N@+]1(CCC(=O)c2ccccc2)CC[C@H]2CC[C@H](C2)C1,x,n[13.5 µM],x,x,x,x
COc1ccc(CN2CCNC(=O)C2CC(=O)N(C)CCC2CCOCC2)cc1OC (stereo not given),x,x,n,n,71µM,x
COc1ccc(CN2CCNC(=O)C2CC(=O)NCCc2cnccn2)cc1C (stereo not given),x,x,n,n,79µM,x
COc1ccc(CN2CCNC(=O)C2CC(=O)NC2CCOCC2)cc1C (stereo not given),x,x,n,n,40µM,x
COc1cc(CN2CCNC(=O)C2CC(=O)N(C)CCC2CCOCC2)cc(OC)c1 (stereo not given),x,x,n,n,n[0.501 µM],x
COc1cc2nc(=S)n3[nH]c(CCn4nc(C)cc4C)nc3c2cc1OC,n,u,n,u,1µM,n
C=CCN1C(=O)/C(=C\c2cccs2)C(C(=O)OC)=C1C,n,n,n,n,50µM,n
COc1ccc(-c2c(C)c3ccc(O)c(CN4CCCCC4)c3oc2=O)cc1OC,n,x,n,x,n,x
COc1ccc(Br)cc1-c1noc(-c2ccccc2)n1,n,n,n,n,n,n
COc1ccc(Br)cc1-c1nc(C)c(C(C)=O)n1O,n,n,n,n,10µM,n
CCN(c1ccccc1)S(=O)(=O)c1cc(-c2onc(C)c2C)ccc1OC,x,x,n,x,n,x
CSc1nc2c(c(=O)[nH]1)C(c1ccccc1Cl)CC(=O)N2 (stereo not given),n[9.22 µM],13µM,n,n,n,n
COc1ccc2c(c1)c1c(c(=O)n(-c3ccccc3)c(=O)n1CC(=O)Nc1ccc(F)cc1)n2C,x,x,n,x,n,x
COc1ccc(C)cc1Nc1n[n+](-c2ccccc2)c(-c2c(Cl)cccc2Cl)s1,x,x,u,u,40µM,x
SMILES,Lamin A splicing,ALDH1A1 block,miR-21 reporter,Sfp PPTase inh,G9a block,KDM4E inh
COc1ccc(C)cc1Nc1n[n+](-c2ccccc2)c(-c2ccc(OC)c(OC)c2OC)s1,x,x,n,n,x,x
COc1ccc(C)cc1Nc1n[n+](-c2ccccc2)c(-c2ccc(N(C)C)cc2)s1,x,x,n,20µM,50µM,x
Cc1ccc(N=C2NC(=O)/C(=C\c3ccsc3)S2)c(C)c1,n,n,n,79µM,n,n
Cc1ccc(N=C2NC(=O)/C(=C/c3cccnc3)S2)c(C)c1,x,x,n,n,x,n
Cc1ccc(C)c(N2CCN(S(=O)(=O)c3ccc4oc(=O)c5ncn(C)c5c4c3)CC2)c1,x,x,n,x,n,x
COc1cccc(/C(O)=C2/C(=O)C(=O)N(Cc3cccnc3)C2c2ccco2)c1 (stereo not given),n,n,n,n,45µM,n
COCCN1C(=O)C(=O)/C(=C(/O)c2cccc(OC)c2)C1c1ccco1 (stereo not given),n,n,n,n,x,n
COc1ccc(C2/C(=C(\O)c3ccc4c(c3)CC(C)O4)C(=O)C(=O)N2Cc2cccnc2)c(OC)c1 (stereo not given),x,x,n,n,71µM,x
